Assay results reported in publication PMC3510514 (Nucleic Acids Research, 2012).

Target: T1, GST-ubiquitin (human, UniProt P0CG48 1-76)
T1 construct: ubiquitin, the cut product of the polyubiquitin precursor; also called GST-tagged ubiquitin; source: purified
Test: pull-down; GST-ubiquitin (3 μg) on glutathione-sepharose beads, FLAG-Spartan (1 μg) in solution; 4 h at 4°C, buffer I (40 mM Tris HCl pH 7.5, 85 mM NaCl, 0.1 mM DTT, 10% glycerol, 0.01% NP40); immunoblot with anti-FLAG and anti-GST
Conditions: both partners purified

- binding result: binds
B1: FLAG-Spartan (wild type) (natural protein, human, UniProt Q9H040 1-489, looked up)
chain: MDDDLMLALRLQEEWNLQEAERDHAQESLSLVDASWELVDPTPDLQALFVQFNDQFFWGQLEAVEVKWSVRMTLCAGICSYEGKGGMCSIRLSEPLLKLRPRKDLVETLLHEMIHAYLFVTNNDKDREGHGPEFCKHMHRINSLTGANITVYHTFHDEVDEYRRHWWRCNGPCQHRPPYYGYVKRATNREPSAHDYWWAEHQKTCGGTYIKIKEPENYSKKGKGKAKLGKEPVLAAENKDKPNRGEAQLVIPFSGKGYVLGETSNLPSPGKLITSHAINKTQDLLNQNHSANAVRPNSKIKVKFEQNGSSKNSHLVSPAVSNSHQNVLSNYFPRVSFANQKAFRGVNGSPRISVTVGNIPKNSVSSSSQRRVSSSKISLRNSSKVTESASVMPSQDVSGSEDTFPNKRPRLEDKTVFDNFFIKKEQIKSSGNDPKYSTTTAQNSSSSSSQSKMVNCPVCQNEVLESQINEHLDWCLEGDSIKVKSEESL
notes: Spartan/C1orf124, human; cDNA clone bought from ImaGenes; also called C1orf124; WT Spartan; source: S. cerevisiae BJ5464, purified (glutathione-Sepharose, eluted by PreScission protease); not shown: GST, N-terminal, cleaved; FLAG, N-terminal, kept
